The values below come from ChEMBL document CHEMBL1146079, “Inhibition of human acetyl- and butyrylcholinesterase by novel carbamates of (-)- and (+)-tetrahydrofurobenzofuran and methanobenzodioxepine” (J Med Chem, 2006).

By UniProt entry, the sequences of proteins in these tests, tags left out. Where a name states a change or a piece, a line headed by the entry shows the natural chain unless it says otherwise.
UniProt P06276, whole entry: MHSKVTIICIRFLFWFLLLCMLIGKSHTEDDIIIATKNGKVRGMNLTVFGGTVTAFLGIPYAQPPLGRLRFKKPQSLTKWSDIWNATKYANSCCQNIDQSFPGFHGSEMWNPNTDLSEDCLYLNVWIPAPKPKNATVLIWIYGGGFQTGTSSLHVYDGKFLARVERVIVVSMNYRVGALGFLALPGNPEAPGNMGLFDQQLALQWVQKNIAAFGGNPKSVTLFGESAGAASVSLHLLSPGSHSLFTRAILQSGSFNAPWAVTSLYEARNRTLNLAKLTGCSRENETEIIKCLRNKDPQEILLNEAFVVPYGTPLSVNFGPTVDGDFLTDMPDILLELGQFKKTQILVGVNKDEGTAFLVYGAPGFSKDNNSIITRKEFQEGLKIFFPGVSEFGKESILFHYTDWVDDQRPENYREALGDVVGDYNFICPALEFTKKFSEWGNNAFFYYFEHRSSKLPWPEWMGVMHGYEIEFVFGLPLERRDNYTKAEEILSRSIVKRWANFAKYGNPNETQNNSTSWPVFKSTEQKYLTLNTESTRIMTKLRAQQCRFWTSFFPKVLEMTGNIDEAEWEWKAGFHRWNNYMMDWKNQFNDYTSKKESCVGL
UniProt P22303: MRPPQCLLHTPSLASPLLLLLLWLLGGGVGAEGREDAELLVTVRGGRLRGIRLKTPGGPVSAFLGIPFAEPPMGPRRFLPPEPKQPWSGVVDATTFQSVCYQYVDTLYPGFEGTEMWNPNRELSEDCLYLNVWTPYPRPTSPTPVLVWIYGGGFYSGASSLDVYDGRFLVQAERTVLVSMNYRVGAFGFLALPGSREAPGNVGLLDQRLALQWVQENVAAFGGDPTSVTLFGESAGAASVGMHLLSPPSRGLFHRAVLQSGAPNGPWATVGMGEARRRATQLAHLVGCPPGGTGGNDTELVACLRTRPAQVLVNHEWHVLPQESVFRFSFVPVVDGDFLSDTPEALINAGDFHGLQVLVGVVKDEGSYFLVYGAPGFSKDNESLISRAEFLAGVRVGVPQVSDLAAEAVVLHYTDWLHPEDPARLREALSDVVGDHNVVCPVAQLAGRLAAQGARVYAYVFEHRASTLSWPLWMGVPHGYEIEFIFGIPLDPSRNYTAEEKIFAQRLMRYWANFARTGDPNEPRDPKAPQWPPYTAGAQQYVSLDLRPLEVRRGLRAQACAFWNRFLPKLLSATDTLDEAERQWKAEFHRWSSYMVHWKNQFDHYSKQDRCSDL

The target in one test is Cholinesterase (Homo sapiens, UniProt P06276).
Another test concerns the target Acetylcholinesterase (Homo sapiens, UniProt P22303).

pIC50: −log10 of the molar value.

The pIC50 is the IC50 on a negative log10 scale, so that one unit is a factor of ten. High values mean a low IC50, low ones a high IC50. On Cholinesterase, `CC(C)c1ccc(NC(=O)Oc2ccc3c(c2)[C@@]2(C)CCN(C)[C@H]2N3C)cc1` had a pIC50 of 5.29.
In the case of `Cc1ccccc1NC(=O)Oc1ccc2c(c1)[C@]1(C)CCO[C@@H]1O2`, at Acetylcholinesterase, the negative logarithm of the IC50 (pIC50) is 7.70.
As to `C=CC[N+](C)(C)c1ccc(CCC(=O)CCc2ccc([N+](C)(C)CC=C)cc2)cc1`, the pIC50 is 7.74 against Acetylcholinesterase and 4.32 at Cholinesterase.
At Acetylcholinesterase, `Cc1ccccc1NC(=O)Oc1ccc2c(c1)[C@@]1(C)CCO[C@H]1O2` showed a pIC50 of 7.44.
